Values quoted from earlier work in patent EP2322149A1, “Methods and compositions for the treatment of ischemia” (Universidad del Pais Vasco, priority 2009, dated 2011).
Counter-ions that a name gives are not always drawn.

Amino acid sequences for entries named in this document (tags omitted).
UniProt Q99572, whole entry, species assumed: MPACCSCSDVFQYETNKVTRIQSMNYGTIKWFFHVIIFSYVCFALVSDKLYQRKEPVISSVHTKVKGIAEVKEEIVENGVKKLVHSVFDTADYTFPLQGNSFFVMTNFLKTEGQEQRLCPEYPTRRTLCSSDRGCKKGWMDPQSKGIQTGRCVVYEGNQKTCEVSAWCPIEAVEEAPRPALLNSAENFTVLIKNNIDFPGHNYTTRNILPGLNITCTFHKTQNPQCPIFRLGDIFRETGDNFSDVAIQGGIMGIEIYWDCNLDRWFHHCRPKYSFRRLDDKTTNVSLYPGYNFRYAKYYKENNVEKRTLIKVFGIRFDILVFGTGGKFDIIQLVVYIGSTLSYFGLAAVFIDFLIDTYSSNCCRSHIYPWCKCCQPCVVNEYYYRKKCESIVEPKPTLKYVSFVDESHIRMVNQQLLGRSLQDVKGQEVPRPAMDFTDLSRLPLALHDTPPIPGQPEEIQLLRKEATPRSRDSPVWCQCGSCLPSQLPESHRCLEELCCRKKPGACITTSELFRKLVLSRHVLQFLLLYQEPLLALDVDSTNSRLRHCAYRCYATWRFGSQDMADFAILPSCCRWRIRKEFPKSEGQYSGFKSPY
UniProt Q93086, whole entry, species assumed: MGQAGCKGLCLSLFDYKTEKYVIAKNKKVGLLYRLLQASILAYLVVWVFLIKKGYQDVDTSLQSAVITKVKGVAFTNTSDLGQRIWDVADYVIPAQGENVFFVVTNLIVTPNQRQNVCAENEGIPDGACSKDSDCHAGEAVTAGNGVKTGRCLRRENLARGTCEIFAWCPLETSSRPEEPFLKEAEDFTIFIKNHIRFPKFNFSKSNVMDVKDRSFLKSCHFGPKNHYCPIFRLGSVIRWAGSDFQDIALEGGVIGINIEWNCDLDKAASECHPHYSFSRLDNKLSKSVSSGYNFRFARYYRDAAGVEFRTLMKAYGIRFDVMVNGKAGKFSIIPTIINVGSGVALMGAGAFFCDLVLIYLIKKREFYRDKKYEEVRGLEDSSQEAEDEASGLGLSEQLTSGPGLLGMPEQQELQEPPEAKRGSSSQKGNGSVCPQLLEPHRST

Experiments:
Conditions in all cases: cited from earlier work
P2X2 = molecular target: T1, P2X2 (Homo sapiens, UniProt Q9UBL9)
T1 sequence (Q9UBL9 1-471): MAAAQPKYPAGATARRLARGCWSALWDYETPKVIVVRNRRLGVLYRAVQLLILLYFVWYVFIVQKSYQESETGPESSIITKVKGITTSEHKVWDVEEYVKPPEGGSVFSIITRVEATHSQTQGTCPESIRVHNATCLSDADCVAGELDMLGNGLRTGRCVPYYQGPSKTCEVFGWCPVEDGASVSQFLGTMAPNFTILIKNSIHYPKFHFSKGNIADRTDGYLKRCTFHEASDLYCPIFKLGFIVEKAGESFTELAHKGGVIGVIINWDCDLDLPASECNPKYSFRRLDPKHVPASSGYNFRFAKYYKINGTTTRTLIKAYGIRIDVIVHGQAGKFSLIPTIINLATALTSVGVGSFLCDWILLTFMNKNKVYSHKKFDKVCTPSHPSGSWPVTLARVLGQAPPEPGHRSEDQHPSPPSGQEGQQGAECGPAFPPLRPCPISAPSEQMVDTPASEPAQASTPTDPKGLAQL

P2X7 = P2X7 (Homo sapiens, UniProt Q99572)
P2X5 = P2X5 (Homo sapiens, UniProt Q93086)
P2X4 = molecular target: T2, P2X4 (Homo sapiens, UniProt Q99571)
T2 sequence (Q99571 1-388): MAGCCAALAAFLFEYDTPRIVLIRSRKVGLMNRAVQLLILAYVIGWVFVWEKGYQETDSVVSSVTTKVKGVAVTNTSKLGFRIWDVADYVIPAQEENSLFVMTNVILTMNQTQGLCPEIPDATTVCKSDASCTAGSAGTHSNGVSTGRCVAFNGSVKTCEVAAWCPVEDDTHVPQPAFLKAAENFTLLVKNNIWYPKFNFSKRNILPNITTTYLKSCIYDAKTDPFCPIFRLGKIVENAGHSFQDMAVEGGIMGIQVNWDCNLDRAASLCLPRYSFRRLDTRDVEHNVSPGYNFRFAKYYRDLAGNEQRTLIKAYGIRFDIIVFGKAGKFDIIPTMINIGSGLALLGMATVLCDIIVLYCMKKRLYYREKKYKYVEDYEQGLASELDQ

Row | Compound | IC50 (P2X2) | IC50 (P2X7) | IC50 (P2X5) | IC50 (P2X4)
1 | O=C(Nc1cccc(C(=O)Nc2ccc(S(=O)(=O)O)c3cc(S(=O)(=O)O)cc(S(=O)(=O)O)c23)c1)Nc1cccc(C(=O)Nc2ccc(S(=O)(=O)O)c3cc(S(=O)(=O)O)cc(S(=O)(=O)O)c23)c1 [NF023] | 63 µM |  |  | 
2 | Cc1nc(N=Nc2ccc(S(=O)(=O)O)cc2S(=O)(=O)O)c(COP(=O)(O)O)c(C=O)c1O [PPADS, tetrasodium salt of pyridoxalphosphate-6-azophenyl-2',4'-disulfonic acid] | 2 µM | 4.2 µM | 2.6 µM | 27.5 µM
